Experiment [1] concerns endogenous sulfenylated proteins in bacterial cell lysates, including AhpC C166S. Format: biochemical. Particulars: for labeling of endogenous sulfenylated proteins: bacterial cell lysates, FIGS. 3A and B.
Another experiment concerns AhpC C166S. In words: spectroscopic properties of probe conjugated to purified AhpC C166S (sulfenic acid conjugation). Format: biochemical. The text has this: In these experiments, the incorporation of a blocking group inhibits other two-proton processes, such as the Knoevenagel condensation of AMCs with aldehydes. F-AMC analogues display a higher degree of selectivity.
This is coupled with a significant excitation red-shifting of the primary excitation peak near 490 nm, providing an excellent excitation ratiometric fluorescent probe using the common 405 nm and 488 confocal lines (FIG. 5). […] Next, whether DiNap-1F could be used for ratiometric imaging sulfenylation in live cells by Total Internal Reflectance Fluorescence (TIRF) microscopy was tested.

Where only a bound is given, the exact number is not on record here.

`C#CCCCC1CCC(=O)CC1=O` (centres unmarked) [Dyn2 RhoN3]: in experiment [1], the “labeling of endogenous sulfenylated proteins” value was “efficiently label many endogenous sulfenylated proteins”.
Turning to `CC1(C)CC(=O)CC(=O)C1` [Dimedone, 5,5-dimethylcyclohexane-1,3-dione], the “competition with DiNap-1F labeling” value in experiment [1] (FIG. 3E) is on record as “effectively competed”.
Turning to `Nc1ccc2c3c(cccc13)C(=O)C(F)=C2O` [DiNap-1F], in experiment [1], the “labeling of endogenous sulfenylated proteins” value was “efficiently label many endogenous sulfenylated proteins”. Also, in the experiment with AhpC C166S (purified labeled AhpC C166S), the “change of excitation/emission spectra after conjugation” value is reported as “dramatic loss of the excitation peak at 400 nm”. The “excitation ratiometric fluorescence change” value with AhpC C166S (upon conjugation to sulfenic acid, after only a few minutes) is over 2 fold.
